Screening results deposited in PubChem by Broad Institute.
Compounds with a hit are over-represented: about 2.2% of the library has one in this group of screens.
ERp5 block – inhibitors of ERp5-driven insulin aggregation, primary screen, biochemical, turbidity, absorbance 650 nm, single point | 90 min | inhibition, % at 9.99 µM | 350,000 tested, 0.05% active | AID 651711, 2012;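 active means mean replicate inhibition above about 25%, with every replicate also reaching it, limit read from the data, passing the limit was not always enough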
PDI inh – inhibitors of human PDI, primary screen, biochemical, turbidity, single point, plate reader; PDI insulin aggregation turbidity, A650, 90 min; inhibition, % at 10 µM; 350,000 tested, 0.052% active; AID 588391, 2011;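 active means mean inhibition across replicates of 30% or more, whatever share of single replicates reach that level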
SIRT5 inh – SIRT5 desuccinylase inhibitors, primary screen, biochemical, fluorescence imaging, single point, set 5; NAD-dependent protein deacylase sirtuin-5, mitochondrial (Homo sapiens), Q9NXA8; Purified SirT5, succinyl-peptide AMC, trypsin-coupled fluorescence; inhibition, % at 15 µM; 330,000 tested, 1.1% active; AID 652115, 2013; in the data active means inhibition above about 15%
UUG fidelity – modulators of yeast start codon fidelity, primary screen, whole organism, S. cerevisiae, single point, plate reader. S. cerevisiae UUG-firefly luciferase reporter, luminescence/redox ratio. activity score, % at 18.7 µM. 350,000 tested, 0.13% active;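 active = replicate mean at a twofold rise or more, about +100% in these data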;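 also: firefly luciferase made from a UUG start codon reports start codon fidelity; reporter light over untreated wells divided by growth signal over untreated wells; some hits fall short of that in this replicate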
FGF22 binding – binders of human FGF22 protein, primary screen, FGF22 synaptogenesis inhibitor project, biophysical, thermal shift, single point; recombinant FGF22 thermal shift, SYPRO orange fluorescence; percent of sucrose octasulfate shift, DMSO zero; 340,000 tested, 1.5% active; Fibroblast growth factor 22 (Homo sapiens), Q9HCT0; activity (Tm shift, normalised), % at 9.99 µM;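 active means mean Tm shift, scaled 0 neutral to 100 positive control, at about 1.3% or above, every replicate too, limit read from the data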
S100A4 MyoIIA – inhibitors of S100A4-myosin IIA peptide binding, primary screen, biochemical, fluorescence polarization, TAMRA-MyoIIA peptide. inhibition, % at 10.7 µM. 360,000 tested, 0.14% active. AID 652163, 2013;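 active means mean inhibition of at least 70% across replicates, with every replicate also reaching that level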
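Compound dosing: one dose per compound; test system: human S100A4 monomer with TAMRA-labelled myosin IIA peptide; probe or stimulus: TAMRA-labelled myosin IIA heavy-chain peptide probe, 5 nM; medium: HEPES buffer with Ca2+, pH 7.2; schedule: 5 min incubation before reading; benchmarks: neutral control DMSO, positive control TFP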
* marks the source's active call; other numbers are inactive results; x = not tested or not shown.

1. O=C(c1cccnc1)N1C[C@H]2[C@@H](c3ccccc31)[C@H](CO)N2C(=O)C1CCOCC1
2. Cc1ccc(NC(=O)CN2C(=O)NC3(CCCc4ccccc43)C2=O)cc1S(=O)(=O)N1CCOCC1 (stereo unspecified)
3. CCN(CC)S(=O)(=O)c1cc(NC(=O)CN2C(=O)NC3(CCCc4ccccc43)C2=O)ccc1C (stereo unspecified)
4. Cc1nnc(SCCOc2ccccc2)s1
5. Cc1noc(C)c1S(=O)(=O)Nc1ccc2c(c1)C(=O)N([C@@H](C)CO)C[C@H](C)[C@H](CN(C)S(=O)(=O)c1ccccc1)OCCCC[C@@H](C)O2
6. CCCCNC(=O)c1c(CSc2ccc(Cl)cc2)noc1C(=O)NCCC
7. CCCCNC(=O)c1onc(CSc2ccc(Cl)cc2)c1C(=O)NCCCC
8. O=C(C[C@@H]1CC[C@@H](NS(=O)(=O)c2ccccc2)[C@@H](CO)O1)N1CCN(c2ccccc2)CC1

Screen / compound no.	1	2	3	4	5	6	7	8
ERp5 block	0	-6	4	-4	0	-1	2	12
PDI inh	x	0	1	-2	x	0	0	x
SIRT5 inh	-1	-4	0	-6	6	-3	0	-2
UUG fidelity	24	x	x	x	-6	-14	7	x
FGF22 binding	0	44*	0	44*	0	0	35*	0
S100A4 MyoIIA	10	0	0	2	-13	7	-1	-1

9. CCOC(=O)c1c(C)[nH]c(C)c1C(=O)COC(=O)c1cc2ccccc2cc1OC
10. CCOC(=O)c1c(C)[nH]c(C)c1C(=O)COC(=O)c1cc2ccccc2cc1O
11. CCC1CN(C(=O)N2CCC(C(=O)Nc3ccccc3F)CC2)c2ccccc2O1 (stereo unspecified)
12. CCC1CN(C(=O)N2CCC(C(=O)NCc3ccccc3C)CC2)c2ccccc2O1 (stereo unspecified)
13. COCC(=O)N1C[C@H](C)[C@@H](OC)CN(C)C(=O)c2cc(NC(=O)Nc3cccc(F)c3)ccc2OC[C@@H]1C
14. C[C@@H]1CN([C@H](C)CO)C(=O)Cc2cc(NC(=O)Cc3cn(C)c4ccccc34)ccc2O[C@@H]1CN(C)S(=O)(=O)c1cn(C)cn1
15. Cc1cccc(-c2noc(CN(C)C(=O)c3ccco3)n2)c1
16. Cc1cccc(-c2noc(CN(C)C(=O)c3ccoc3C)n2)c1

Screen / compound no.	9	10	11	12	13	14	15	16
ERp5 block	x	3	7	5	x	-5	2	2
PDI inh	-2	-4	-9	-8	x	x	1	0
SIRT5 inh	x	112*	19*	-4	3	10	52*	-7
UUG fidelity	3	x	-12	-25	x	8	-13	-1
FGF22 binding	x	0	0	0	0	0	42	0
S100A4 MyoIIA	x	-20	-4	-6	10	-2	0	8

17. CCNC(=O)C[C@@H]1CC[C@@H]2[C@@H](COc3ccc(NC(=O)c4cccs4)cc3C(=O)N2C)O1
18. CCc1cc2c(=O)c(-c3nc4ccccc4n3C)coc2c(CN2CCCCC2)c1O
19. O=C(CN1C(=O)CCC1=O)Nc1nc(-c2ccc3ccccc3c2)cs1
20. CO[C@@H]1CN(C)C(=O)c2ccc(NC(=O)C3CCCC3)cc2OC[C@H](C)N(C)C[C@H]1C
21. C[C@H]1CN=C(Nc2ccccc2)N1CCC1CCCCC1
22. C[C@@H]1CCCCO[C@@H](CN(C)CC2CCCCC2)[C@H](C)CN([C@@H](C)CO)C(=O)c2cc(NC(=O)NC3CCCCC3)ccc2O1
23. Cc1noc(C)c1NC(=O)N(C)C[C@H]1OCCCC[C@H](C)Oc2ccc(NC(=O)NC3CCCCC3)cc2C(=O)N([C@@H](C)CO)C[C@@H]1C

Screen / compound no.	17	18	19	20	21	22	23
ERp5 block	-1	-3	5	3	4	x	1
PDI inh	x	-12	7	x	-4	x	x
SIRT5 inh	0	34*	-4	-2	22*	x	-5
UUG fidelity	-14	-1	x	0	-9	-1	-4
FGF22 binding	0	0	44*	0	0	0	1.4*
S100A4 MyoIIA	10	-4	0	-6	-5	x	5

Fetched by structure from the list above (two):
19. O=C(CN1C(=O)CCC1=O)Nc1nc(-c2ccc3ccccc3c2)cs1
21. C[C@H]1CN=C(Nc2ccccc2)N1CCC1CCCCC1

Screen / compound no.	19	21
ERp5 block	5	4
PDI inh	7	-4
SIRT5 inh	-4	22*
UUG fidelity	x	-9
FGF22 binding	44*	0
S100A4 MyoIIA	0	-5
